Measured values as given in article PMC6544337, “Development of chimeric and bifunctional antagonists for CLR/RAMP receptors” (PLoS ONE, 2019).

Amino acid sequences for entries named in this document (tags omitted). Residues count along the entry.
UniProt Q16602, 23-461, chain 1 of 2: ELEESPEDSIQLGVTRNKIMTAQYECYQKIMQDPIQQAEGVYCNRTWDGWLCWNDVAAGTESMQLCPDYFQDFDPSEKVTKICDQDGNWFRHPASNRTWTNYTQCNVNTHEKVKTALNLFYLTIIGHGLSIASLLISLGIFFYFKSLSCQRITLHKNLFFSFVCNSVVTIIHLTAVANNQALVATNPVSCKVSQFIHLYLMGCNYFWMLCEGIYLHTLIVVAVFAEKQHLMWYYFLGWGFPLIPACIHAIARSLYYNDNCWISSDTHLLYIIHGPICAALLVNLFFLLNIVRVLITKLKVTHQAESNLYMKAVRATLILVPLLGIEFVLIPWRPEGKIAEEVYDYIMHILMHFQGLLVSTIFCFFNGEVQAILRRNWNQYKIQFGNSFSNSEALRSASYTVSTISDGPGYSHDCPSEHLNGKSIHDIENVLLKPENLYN

Experiments:
[1] = molecular target: CLR/RAMP1 receptor complex (UniProt Q16602)
[2] = molecular target: CLR/RAMP2 receptor complex (UniProt Q16602)

In the case of ADM1-52 (peptide), the EC50 of CLR/RAMP1 cAMP signalling (1321N1 cells, HitHunter cAMP XS+ assay) [1] is reported as 564 nM and the EC50 of CLR/RAMP2 signalling (CHO-K1 cells, PathHunter β-Arrestin assay) [2] is reported as 12 nM.
